What was measured:
[1] = test system: MIA-PaCa-2 (MP2) shCtrl/shCav-1 cells; experiment: Uptake by direct fluorescence in MP2 shCtrl vs shCav-1 cells; type: cell-based; settings: FITC-HSA (0.01%) pulsed 1 h
Description: (§1) Cells were plated on coverslips and treated with or without FITC-HAS, SN-38, or SSH20. Cells were pulsed either 1 hour with 0.1% FITC-HAS or 2 hours with 250 nM SN/38/SSH20 prior to fixation. When applicable, in order to remove membrane-bound albumin, two acid/salt washes were performed with 0.1M glycine and 0.1M NaCl, pH 3.02 for 2 minutes each, followed by two washes with phosphate buffer saline (PBS). Cells were then fixed with 2% paraformaldehyde for 15 minutes at room temperature and washed 1×PBS 2 times for 5 minutes each. Cells were incubated with 0.1% Triton-x-100 for 10 min on ice to permeabilize, then washed twice with 1×PBS prior to blocking with 3% bovine serum albumin in 1×PBS overnight at 4° C. In a humidified chamber, primary antibodies (1:50) in blocking buffer were added and incubated for 1 hour at 4° C., followed by three 10 minute rinses with blocking buffer. Secondary antibody (conjugated to Alexa Fluor 488, 1:1000) was added along with DAPI for 1 hour at room temperature. Cells were then rinsed, and coverslips were mounted onto slides and then sealed. Cells were then imaged with a confocal microscope with locked settings across the control and respective experimental conditions. For auto-fluorescence experiments with SN-30 and SSH20, images were taken at an emission wavelength of 543 nm. ImageJ was used to measure the fluorescence intensity of individual cells.

[2] = test system: H23 shCtrl/shCav-1 cells; experiment: Uptake by direct fluorescence in H23 shCtrl vs shCav-1 cells; type: cell-based; settings: FITC-HSA (0.01%) pulsed 1 h
Description: as §1

FITC-HSA: FITC-labeled human serum albumin used to measure albumin uptake
albumin uptake in shCav-1 versus shCtrl cells (FITC fluorescence intensity) [1]: significant reduction of albumin uptake
albumin uptake in shCav-1 versus shCtrl cells (FITC fluorescence intensity) [2]: significant reduction of albumin uptake
